Source: ChEMBL document CHEMBL6109111, “Structure-activity relationship analysis of meta-substituted N-cyclopropylmethyl-nornepenthones with mixed KOR/MOR activities” (Eur J Med Chem, 2025)

Legend:
[1] = target: T1, Mu-type opioid receptor (Rattus norvegicus, UniProt P33535); test: Displacement of [3H]-DAMGO from rat MOR expressed in CHO cell membrane assessed as inhibition constant incubated for 30 mins by liquid scintillation counting method
[2] = target: Delta-type opioid receptor (Rattus norvegicus, UniProt P33533); test: Displacement of [3H]-DPDPE from rat DOR expressed in CHO cell membrane assessed as inhibition constant incubated for 30 mins by liquid scintillation counting method
[3] = target: T2, Kappa-type opioid receptor (Homo sapiens, UniProt P41145); test: Displacement of [3H]-U69593 from human KOR expressed in CHO cell membrane assessed as inhibition constant incubated for 30 mins by liquid scintillation counting method
[4] = target: T1, Mu-type opioid receptor; test: Antagonist activity at rat MOR expressed in HEK293 cells coexpressing Glo-Sensor22F assessed as inhibition of forskolin-induced cAMP accumulation incubated for 15 mins by Microplate reader assay
[5] = target: T2, Kappa-type opioid receptor; test: Agonist activity at human KOR expressed in HEK293 cells coexpressing Glo-Sensor22F assessed as inhibition of cAMP accumulation incubated for 15 mins by Microplate reader assay

## COc1ccc2c3c1O[C@H]1[C@@]4(OC)C=C[C@@]5(C[C@@H]4C(=O)c4ccccc4)[C@@H](C2)N(CC2CC2)CC[C@]315
[1]
  Ki: 130 nM
[2]
  Ki: 774 nM

## COc1ccc2c3c1O[C@H]1[C@@]4(OC)C=C[C@@]5(C[C@@H]4C(=O)c4cccc(NC(=O)Cc6ccccc6)c4)[C@@H](C2)N(CC2CC2)CC[C@]315
[3]
  Ki: 43.8 nM
[1]
  Ki: 40.1 nM
[2]
  Ki: 208 nM

## COc1cccc(C(=O)Nc2cccc(C(=O)[C@H]3C[C@@]45C=C[C@]3(OC)[C@@H]3Oc6c(OC)ccc7c6[C@@]34CCN(CC3CC3)[C@@H]5C7)c2)c1
[3]
  Ki: 27 nM
[1]
  Ki: 528 nM
[2]
  Ki: 274 nM

## COc1ccc2c3c1O[C@H]1[C@@]4(OC)C=C[C@@]5(C[C@@H]4C(=O)c4cccc(NC(=O)OCC(C)C)c4)[C@@H](C2)N(CC2CC2)CC[C@]315
[3]
  Ki: 36.2 nM
[1]
  Ki: 99.8 nM
[2]
  Ki: 306 nM

## COc1ccc(C(=O)Nc2cccc(C(=O)[C@H]3C[C@@]45C=C[C@]3(OC)[C@@H]3Oc6c(OC)ccc7c6[C@@]34CCN(CC3CC3)[C@@H]5C7)c2)cc1
[3]
  Ki: 32.9 nM
[1]
  Ki: 438 nM
[2]
  Ki: 853 nM

## COc1ccc2c3c1O[C@H]1[C@@]4(OC)C=C[C@@]5(C[C@@H]4C(=O)c4cccc(Nc6ccccc6)c4)[C@@H](C2)N(CC2CC2)CC[C@]315
[3]
  Ki: 2320 nM
[1]
  Ki: 174 nM
[2]
  Ki: 6870 nM

## COc1ccc2c3c1O[C@H]1[C@@]4(OC)C=C[C@@]5(C[C@@H]4C(=O)c4cccc(NC(=O)c6ccc(C)c(C)c6)c4)[C@@H](C2)N(CC2CC2)CC[C@]315
[3]
  Ki: 46 nM
[1]
  Ki: 37.9 nM
[2]
  Ki: 3090 nM

## COc1ccc2c3c1O[C@H]1[C@@]4(OC)C=C[C@@]5(C[C@@H]4C(=O)c4cccc(NC(=O)c6ccccc6)c4)[C@@H](C2)N(CC2CC2)CC[C@]315
[3]
  Ki: 8.5 nM
[1]
  Ki: 41.3 nM
[4]
  IC50: 379 nM
[2]
  Ki: 1050 nM
[5]
  EC50: 3.1 nM

## COc1ccc2c3c1O[C@H]1[C@@]4(OC)C=C[C@@]5(C[C@@H]4C(=O)c4cccc(NCc6ccccc6)c4)[C@@H](C2)N(CC2CC2)CC[C@]315
[3]
  Ki: 208 nM
[1]
  Ki: 100 nM
[2]
  Ki: 2600 nM

## COc1ccc2c3c1O[C@H]1[C@@]4(OC)C=C[C@@]5(C[C@@H]4C(=O)c4cccc(NC(=O)c6cnn(C)c6)c4)[C@@H](C2)N(CC2CC2)CC[C@]315
[3]
  Ki: 6.9 nM
[1]
  Ki: 75.6 nM
[2]
  Ki: 209 nM

## COc1ccc2c3c1O[C@H]1[C@@]4(OC)C=C[C@@]5(C[C@@H]4C(=O)c4cccc(NC(=O)c6ccc(Cl)c(Cl)c6)c4)[C@@H](C2)N(CC2CC2)CC[C@]315
[3]
  Ki: 425 nM
[1]
  Ki: 662 nM
[2]
  Ki: > 10000 nM

## COc1ccc2c3c1O[C@H]1[C@@]4(OC)C=C[C@@]5(C[C@@H]4C(=O)c4cccc(NC(=O)OCc6ccccc6)c4)[C@@H](C2)N(CC2CC2)CC[C@]315
[3]
  Ki: 10.2 nM
[1]
  Ki: 81.9 nM
[2]
  Ki: 238 nM
